Measurements as given in paper PMC2745115 (Bioorganic & medicinal chemistry letters, 2008).

System: μ, δ, κ opioid receptors
Experiment: Binding selectivity μ/δ/κ from Ki values
Details: ratio of Ki values, lowest set to 1

Row | SMILES | Selectivity μ/δ/κ
1 | Oc1ccc2c(c1)[C@@]13CCCC[C@H]1[C@@H](C2)N(CC1CCC1)CC3 [3a, butorphan] | 3/75/1
2 | CN1CC[C@]23CCCC[C@H]2[C@H]1Cc1ccc(O)cc13 [compound 1, levorphanol] | 1/20/11
